Tests used:
[1] = test system: duodenum lumen enzymes; assay: Degradation of insulin analogs using duodenum lumen enzymes; type: in vitro ADME, SPD rats; conditions: rat duodenum enzymes, pH 7.4, 37° C.; for Duodenum degradation. Relative stability vs. human insulin: half time divided by half time of human insulin; for Duodenum degradation. Relative stability vs. A14E, B25H, desB30 human insulin: half time divided by half time of reference insulin
[2] = Hydrophobicity by reverse phase HPLC under isocratic conditions; type: physicochemical; conditions: isocratic RP-HPLC, pH 7.3; human insulin as reference (k'rel = 1)

In the case of “A14E, B25H, B29K(N^ε(5-Eicosanedioylaminoisophthalic acid)), desB30 Human Insulin [Example 47]”, the “Duodenum degradation. Relative stability vs. human insulin” value [1] is reported as 7 and the “Duodenum degradation. Relative stability vs. A14E, B25H, desB30 human insulin” value [1] is reported as 0.6.

In the case of “A14E, B25H, B29K(N^ε (N-Octadecandioyl-N-carboxymethyl)-beta-alanyl), desB30 Human Insulin [Example 6]”, the “Relative hydrophobicity, k'relderiv” value [2] is reported as “.19”.

With “A14E, B25H, B29K(N^εOctadecanedioyl-γGlu-Abu-Abu-Abu-Abu), desB30 Human Insulin [Example 41]” the “Duodenum degradation. Relative stability vs. human insulin” value [1] was 8.4 and the “Duodenum degradation. Relative stability vs. A14E, B25H, desB30 human insulin” value [1] was “.7”.
